Sequences of proteins named here, by UniProt entry; tags and fusion partners are left off. A change or cut given only in a name is not applied to a line headed by its entry.
UniProt P61586: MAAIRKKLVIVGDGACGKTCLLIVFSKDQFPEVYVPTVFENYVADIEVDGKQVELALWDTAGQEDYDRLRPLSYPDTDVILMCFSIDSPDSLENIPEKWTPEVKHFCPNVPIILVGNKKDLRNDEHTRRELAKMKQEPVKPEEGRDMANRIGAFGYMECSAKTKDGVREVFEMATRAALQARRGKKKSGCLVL

According to patent publication US20050209147A1, “Peptide inhibitors of RhoA signaling” (The Board of Trustees of the Leland Stanford Junior …, priority 2004, published 2005):

Tested on: LFA-1 high affinity state
Test: Measurement of LFA-1 high affinity state (soluble 125I-ICAM-1 binding)
Assay type: cell-based, mouse
Details: for LFA-1 high affinity state triggering by CCL21: 125I-ICAM-1 binding, 1 μM CCL21 2 min
Experimental: Measurement of LFA-1 high affinity state. Induction of LFA-1 high affinity state by CCL21 was evaluated by measuring binding of soluble ^125I-ICAM-1. Briefly, ICAM-1 was iodinated with ^125NaI by the Chizzonite method. The binding assay was performed at 37° C. in a 500 μl Eppendorf tube. 40 μl of lymphocyte suspension (5×10^7/ml in PBS containing 1 mg/ml BSA, 2 mM MgCl2, 1 mM CaCl2, 1 mM D-glucose, pH 7.2) were directly layered on […] oil cushion of 2/1 dibutyl/dioctyl phthalates. Lymphocytes were stimulated with 10 μl of PBS containing chemokine (6 μM) and ^125I-ICAM-1 (5×10^5 CPM corresponding approximately to 2 μg of ^125I-ICAM-1). The binding reaction was stopped by rapid centrifugation in microfuge. Radioactivity bound to lymphocytes was counted with a gamma counter.

| LFA-1 high affinity state triggering by CCL21 | maximum blockade of LFA-1 high affinity state triggering (dose-dependent, CCL21) | Substance |
| --- | --- | --- |
| did not prevent |  | P1-RhoA 75-92: Penetratin-1 fused through a glycine to human RhoA aa 75-92 (PDTDVILMCFSIDSPDSL, Domain II); aa 34 (Penetratin-1 fused via glycine linker; UniProt P61586 75-92, looked up, fragment) |
| prevented | about 90% | P1-RhoA 23-40: Penetratin-1 fused through a glycine to human RhoA aa 23-40 (IVFSKDQFPEVYVPTVFE, Domain I); aa 34 (Penetratin-1 fused via glycine linker; UniProt P61586 23-40, looked up, fragment) |
